In publication PMC5537869, “Role of Zucchini and Its Distinctive Components in the Modulation of Degenerative Processes: Genotoxicity, Anti-Genotoxicity, Cytotoxicity and Apoptotic Effects” (Nutrients, 2017):

Test system: HL60 cells
Assay: Cytotoxicity assay, trypan blue exclusion
Method: Therefore, all the cells that exclude the dye are viable. Non-viable cells stained purple-violet, whereas viable ones remained unstained. Trypan blue was added to cell cultures at a 1:1 ratio, and 20 μL of cell suspension was loaded into a Neubauer chamber. The cells were counted under an inverted microscope at 100× magnification. […] Curves are expressed as survival percentage with respect to controls growing at 72 h. All data represent the average of at least three independent experiments.

In the case of `CC1=C(/C=C/C(C)=C/C=C/C(C)=C/C=C/C=C(C)/C=C/C=C(C)/C=C/C2=C(C)CCCC2(C)C)C(C)(C)CCC1` [β-carotene], the cytotoxicity (HL60, 0.5 μM) is reported as “did not show cytotoxicity” and the “cytotoxic effect (tumoral viability)” value (HL60, 72 h, trypan blue exclusion, at the tested concentrations) is reported as “slight cytotoxic activities”.
